The list shows a part of the results, in another mix than the full data. Results filed as inconclusive are left out. Activity calls are given as the source filed them. Calls follow the shape of the dose curve; as a rule, active = well fitted inhibition curve with a large enough effect; inconclusive = small, poorly fitted or top-dose-only effect; inactive = flat fitted curve, though single readings scatter.
Each compound was assayed against Serine/threonine-protein kinase PLK1 (Homo sapiens) (UniProt P53350) (assay: qHTS for Inhibitors of PLK1-PDB (polo-like kinase 1 - polo-box domain): Primary Screen). Conditions: Plk1 PBD binding of FITC phosphopeptide, fluorescence polarization.
% is scaled to controls: 0 for no effect and ±100 for the full control effect.
Also: series mostly up to about 57 µM; nearly all actives have a fitted effect of over 65% in size.

Protein sequences, listed by entry. Tags and fused reporters are not part of them.
UniProt P53350, whole entry: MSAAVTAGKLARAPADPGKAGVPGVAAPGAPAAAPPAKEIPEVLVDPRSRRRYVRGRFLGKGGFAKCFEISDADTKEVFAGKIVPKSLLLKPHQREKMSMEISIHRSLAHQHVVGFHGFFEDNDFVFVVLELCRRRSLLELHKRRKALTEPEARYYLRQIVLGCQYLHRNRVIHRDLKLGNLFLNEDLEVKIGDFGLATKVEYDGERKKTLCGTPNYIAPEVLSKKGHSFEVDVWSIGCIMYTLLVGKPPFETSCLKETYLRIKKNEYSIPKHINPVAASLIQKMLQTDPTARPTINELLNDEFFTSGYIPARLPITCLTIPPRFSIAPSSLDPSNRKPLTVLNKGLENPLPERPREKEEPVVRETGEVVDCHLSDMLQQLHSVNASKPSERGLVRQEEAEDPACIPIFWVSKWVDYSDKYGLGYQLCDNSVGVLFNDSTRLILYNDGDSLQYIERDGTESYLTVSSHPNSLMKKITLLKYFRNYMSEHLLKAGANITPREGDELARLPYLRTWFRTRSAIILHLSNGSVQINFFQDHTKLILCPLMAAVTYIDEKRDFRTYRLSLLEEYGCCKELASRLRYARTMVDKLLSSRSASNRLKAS

Row | SMILES | max response, negative = inhibition
1 | CCC(=O)N(c1ccccc1)C1(COC)CCN(CCc2cccs2)CC1 | inactive: -6.48%
2 | CCC(=O)N(c1ccccc1)C1(COC)CCN(CCn2nnn(CC)c2=O)CC1 | inactive: -4.64%

From PubChem BioAssay AID720504 (National Center for Advancing Translational Sciences (NCATS), 2013)
